Data taken from patent US6156769A (priority 2000, dated 2000).

Tested on: scratching induced by Compound 48/80 in mice
Assay: mouse scratch model (antagonism of scratching induced by Compound 48/80)
Format: in vivo, male Swiss albino mice
Settings: Compound 48/80 challenge, 30 min observation

## CN(C(=O)Cc1cccc2occc12)[C@H]1CC[C@@]2(CCCO2)C[C@@H]1N1CCCC1
2.5 mg/kg s.c.
  % Inhibition (of scratching): 30%
5.0 mg/kg s.c.
  % Inhibition (of scratching): 57%
10.0 mg/kg s.c.
  % Inhibition (of scratching): 75%
30.0 mg/kg s.c.
  % Inhibition (of scratching): 92%
